{"source": "patent US4016193A", "about": "“Novel substituted phenylacetic acid derivatives and a process for preparing thereof” (Mitsubishi Yuka Pharmaceutical Co., Ltd., priority 1974, dated 1977)", "key": {"[1]": {"tested_on": "writhing syndrome caused by acetic acid", "assay": "Analgesic activity, acetic acid writhing method, oral", "type": "in vivo, dd origin male mice", "conditions": "ratio of ED50 values; methyl 3-nitro-4-allyloxyphenylacetate defined as 1", "experimental": "(b) The analgesic activity was measured by means of acetic and writhing\n10dd origin male mice weighing 17 -\n25g were used as one group after 18 hours of fasting. After oral\nadministration of the test compounds the frequencies of writhing syndrome\ncaused by intraperitoneal administration of 0.1 ml/10g of a 0.6% acetic\nacid were measured for 20 minutes. The frequencies of writhing syndrome\nwhich are below 50% of those of the control group were defined as\nanalgesic activity (+) and the ED50 values were calculated by means of\nLitchfield-Wilcoxon method. The ED50 value of methyl\n3-nitro-4-allyloxyphenylacetate is defined as 1 and the activity ratios of\nthe test compounds were expressed as ratio of ED50 values. The test\ncompounds were administered as a suspension such as are adjusted to be 0.1\nml/10g in a 1% tragacanth solution. A 1% tragacanth solution was\nadministered to the control group."}, "in vivo": {"assay": "in vivo", "conditions": "rat, po, orally, rats"}}, "data": [{"smiles": "C=CCOc1ccc(CC(=O)O)cc1Cl", "note": "[3-chloro-4-allyloxyphenylacetic acid]", "values": [{"measurement": "activity ratio", "setting": "[1]", "value": 0.54}, {"measurement": "LD50", "setting": "in vivo; female", "value": 1630, "unit": "mg/kg"}, {"measurement": "LD50", "setting": "in vivo; male", "value": 1700, "unit": "mg/kg"}]}]}
